pEC50: −log10 of the molar value. Where two headings read alike, the source gives them in different places.
Key:
[1] = test system: MDCK-MDR1 cells expressing human Pgp; conditions: for Papp, B-A mean: basal to apical; for Papp, B-A mean / Recover Rate / Papp, A-B mean: 5 µM; for Papp, A-B mean: apical to basal
MV4;11 cells [2] = test: cells; conditions: Homo sapiens, MV4-11, 24 h
22Rv1 cells [3] = test: cells; conditions: Homo sapiens, 22Rv1, 72 h; for EC50: read-out: 22Rv1 Viability (72h) pEC50 (converted)
MV4;11 cells [4] = conditions: CellTiter-Glo, mean ± S.E., N = 3
22Rv1 cells [5] = conditions: CellTiter-Glo, mean ± S.E., N = 2
[6] = read-out: MV4;11 Viability (24h) pEC50

**Q.** With Cc1ncsc1-c1ccc(CNC(=O)[C@@H]2C[C@@H](O)CN2C(=O)[C@@H](NC(=O)COCCOCCOCCOC(=O)C[C@@H]2N=C(c3ccc(Cl)cc3)c3c(sc(C)c3C)-n3c(C)nnc32)C(C)(C)C)cc1 [Compound 25, (S)-13-((2S,4R)-4-Hydroxy-2-((4-(4-methylthiazol-5-yl)benzyl)carbamoyl)pyrrolidine-1-carbonyl)-14,14-dimethyl-11-oxo-3,6,9-trioxa-12-azapentadecyl 2-((S)-4-(4-Chlorophenyl)-2,3,9-trimethyl-6H-thieno[3,2-f][1,2,4]triazolo[4,3-a][1,4]diazepin-6-yl)acetate] as the compound, how does the “Papp, B-A mean” value ([1]; N = 2) read?
**A.** Its value is “BLD”.

**Q.** Which “Recover Rate” value [1] does the source give for Cc1ncsc1-c1ccc(CNC(=O)[C@@H]2C[C@@H](O)CN2C(=O)[C@@H](NC(=O)CCCCCNC(=O)Cc2ccccc2)C(C)(C)C)cc1 [Compound 3, (2S,4R)-1-((S)-3,3-Dimethyl-2-(6-(2-phenylacetamido)hexanamido)butanoyl)-4-hydroxy-N-(4-(4-methylthiazol-5-yl)benzyl)pyrrolidine-2-carboxamide] here?
**A.** Its value is 100%.

**Q.** For CCCCOc1ccc(-c2ccc(C(=O)OCCCCCC(=O)N[C@H](C(=O)N3C[C@H](O)C[C@H]3C(=O)NCc3ccc(-c4scnc4C)cc3)C(C)(C)C)cc2)cc1 [Compound 14, 6-(((S)-1-((2S,4R)-4-Hydroxy-2-((4-(4-methylthiazol-5-yl)benzyl)carbamoyl)pyrrolidin-1-yl)-3,3-dimethyl-1-oxobutan-2-yl)amino)-6-oxohexyl 4′-butoxy-[1,1′-biphenyl]-4-carboxylate], which “Recover Rate” value [1] is on record?
**A.** Its value is 15%.

**Q.** What about the “Papp, A-B mean” value ([1]; N = 2) of the same compound?
**A.** Its value is “BLD”.

**Q.** What about the “Papp, B-A mean” value ([1]; N = 2) of the same compound?
**A.** Its value is “BLD”.

**Q.** Cc1ncsc1-c1ccc(CNC(=O)[C@@H]2C[C@@H](O)CN2C(=O)[C@@H](NC(=O)CCOCCOCCNC(=O)Cc2ccccc2)C(C)(C)C)cc1 [Compound 16, (2S,4R)-1-((S)-14-(tert-Butyl)-2,12-dioxo-1-phenyl-6,9-dioxa-3,13-diazapentadecan-15-oyl)-4-hydroxy-N-(4-(4-methylthiazol-5-yl)benzyl)pyrrolidine-2-carboxamide] was tested. Which “Papp, A-B mean” value ([1]; N = 2) did it give?
**A.** The value was “BLD”.

**Q.** How did the “Recover Rate” value [1] turn out when C[C@H]1O[C@@H](O[C@H]2[C@@H](O)C[C@H](O[C@H]3[C@@H](O)C[C@H](O[C@H]4CC[C@@]5(C)[C@H](CC[C@@H]6[C@@H]5C[C@@H](O)[C@]5(C)[C@@H](C7=CC(=O)OC7)CC[C@]65O)C4)O[C@@H]3C)O[C@@H]2C)C[C@H](O)[C@@H]1O [Digoxin, reference compound] was run?
**A.** The value was 93%.

**Q.** COCC(=O)NCCCCCC(=O)N[C@H](C(=O)N1C[C@H](O)C[C@H]1C(=O)NCc1ccc(-c2scnc2C)cc1)C(C)(C)C [Compound 1, (2S,4R)-4-Hydroxy-1-((S)-2-(6-(2-methoxyacetamido)hexanamido)-3,3-dimethylbutanoyl)-N-(4-(4-methylthiazol-5-yl)benzyl)pyrrolidine-2-carboxamide] was tested. Which “Recover Rate” value [1] did it give?
**A.** The value was 108%.

**Q.** What about the “Efflux ratio B-A/A-B” value ([1]; MDCK-MDR1, 5 µM, N = 2) of the same compound?
**A.** The value was 3.1.

**Q.** For Cc1ncsc1-c1ccc(CNC(=O)[C@@H]2C[C@@H](O)CN2C(=O)[C@@H](NC(=O)CCOCCOCCOCCNC(=O)Cc2ccccc2)C(C)(C)C)cc1 [Compound 17, (2S,4R)-1-((S)-17-(tert-Butyl)-2,15-dioxo-1-phenyl-6,9,12-trioxa-3,16-diazaoctadecan-18-oyl)-4-hydroxy-N-(4-(4-methylthiazol-5-yl)benzyl)pyrrolidine-2-carboxamide], which “Papp, A-B mean” value ([1]; N = 2) is on record?
**A.** Its value is “BLD”.

**Q.** How did the “Recover Rate” value [1] turn out when CCCC(=O)NCCCCCC(=O)N[C@H](C(=O)N1C[C@H](O)C[C@H]1C(=O)NCc1ccc(-c2scnc2C)cc1)C(C)(C)C [Compound 2, (2S,4R)-1-((S)-2-(6-Butyramidohexanamido)-3,3-dimethylbutanoyl)-4-hydroxy-N-(4-(4-methylthiazol-5-yl)benzyl)pyrrolidine-2-carboxamide] was run?
**A.** Its value is 100%.

**Q.** With Cc1ncsc1-c1ccc(CNC(=O)[C@@H]2C[C@@H](O)CN2C(=O)[C@@H](NC(=O)COCCOCCOCCNC(=O)C[C@@H]2N=C(c3ccc(Cl)cc3)c3c(sc(C)c3C)-n3c(C)nnc32)C(C)(C)C)cc1 [Compound 21, MZ1] as the compound, how does the pEC50 (MV4;11 cells [2]; [6]) read?
**A.** The pEC50 was 6.90.

**Q.** And the EC50 (22Rv1 cells [3])?
**A.** Its EC50 is 501 nM.

**Q.** What about the “Recover Rate” value [1] of the same compound?
**A.** Its value is 98%.

**Q.** How did the “MV4;11 Viability (24h) pEC50” value (MV4;11 cells [4]) turn out when Cc1ncsc1-c1ccc(CNC(=O)[C@@H]2C[C@H](O)CN2C(=O)[C@@H](NC(=O)COCCOCCOCCNC(=O)C[C@@H]2N=C(c3ccc(Cl)cc3)c3c(sc(C)c3C)-n3c(C)nnc32)C(C)(C)C)cc1 (relative stereo) [cis-MZ1] was run?
**A.** Its value is at most 5.0.

**Q.** And the “22Rv1 Viability (72h) pEC50” value (22Rv1 cells [5])?
**A.** The value was at most 5.0.

**Q.** How did the pEC50 (MV4;11 cells [2]; read-out: EC50 MV4;11) turn out when Cc1ncsc1-c1ccc([C@H](C)NC(=O)[C@@H]2C[C@@H](O)CN2C(=O)[C@@H](NC(=O)COCCCOCCNC(=O)C[C@@H]2N=C(c3ccc(Cl)cc3)c3c(sc(C)c3C)-n3c(C)nnc32)C(C)(C)C)cc1 [Compound 22, ARV-771] was run?
**A.** The pEC50 was 7.74.

**Q.** And the pEC50 (MV4;11 cells [2]; [6])?
**A.** Its pEC50 is 7.70.

**Q.** What about the EC50 (22Rv1 cells [3]) of the same compound?
**A.** The EC50 was 39.8 nM.

**Q.** And the pEC50 (22Rv1 cells [3]; read-out: EC50 22Rv1)?
**A.** The pEC50 was 7.36.

**Q.** Which “Recover Rate” value [1] does the source give for Cc1ncsc1-c1ccc(CNC(=O)[C@@H]2C[C@@H](O)CN2C(=O)[C@@H](NC(=O)CCCCCNC(=O)CC23CC4CC(CC(C4)C2)C3)C(C)(C)C)cc1 [Compound 5, (2S,4R)-1-((S)-2-(6-(2-(Adamantan-1-yl)acetamido)hexanamido)-3,3-dimethylbutanoyl)-4-hydroxy-N-(4-(4-methylthiazol-5-yl)benzyl)pyrrolidine-2-carboxamide] here?
**A.** Its value is 85%.

**Q.** With Cc1ncsc1-c1ccc(CNC(=O)[C@@H]2C[C@@H](O)CN2C(=O)[C@@H](NC(=O)CCCCCNC(=O)C2CCCCC2)C(C)(C)C)cc1 [Compound 4, (2S,4R)-1-((S)-2-(6-(Cyclohexanecarboxamido)hexanamido)-3,3-dimethylbutanoyl)-4-hydroxy-N-(4-(4-methylthiazol-5-yl)benzyl)pyrrolidine-2-carboxamide] as the compound, how does the “Recover Rate” value [1] read?
**A.** Its value is 98%.

**Q.** CCCCOc1ccc(-c2ccc(C(=O)NCCCCCC(=O)N[C@H](C(=O)N3C[C@H](O)C[C@H]3C(=O)NCc3ccc(-c4scnc4C)cc3)C(C)(C)C)cc2)cc1 [Compound 7, (2S,4R)-1-((S)-2-(6-(4′-Butoxy-[1,1′-biphenyl]-4-carboxamido)hexanamido)-3,3-dimethylbutanoyl)-4-hydroxy-N-(4-(4-methylthiazol-5-yl)benzyl)pyrrolidine-2-carboxamide] was tested. Which “Recover Rate” value [1] did it give?
**A.** Its value is 31%.

**Q.** Which “Papp, A-B mean” value ([1]; N = 2) does the source give for Cc1ncsc1-c1ccc(CNC(=O)[C@@H]2C[C@@H](O)CN2C(=O)[C@@H](NC(=O)CCCCCOC(=O)CC23CC4CC(CC(C4)C2)C3)C(C)(C)C)cc1 [Compound 12, 6-(((S)-1-((2S,4R)-4-Hydroxy-2-((4-(4-methylthiazol-5-yl)benzyl)carbamoyl)pyrrolidin-1-yl)-3,3-dimethyl-1-oxobutan-2-yl)amino)-6-oxohexyl 2-(adamantan-1-yl)acetate] here?
**A.** The value was “BLD”.

Source: paper PMC8713283 (Journal of Medicinal Chemistry, 2021)
